{"source": "ChEMBL document CHEMBL5154889", "about": "“Development of Novel IP6K Inhibitors for the Treatment of Obesity and Obesity-Induced Metabolic Dysfunctions” (J Med Chem, 2022)", "molecular_target": "T1, Inositol hexakisphosphate kinase 3 (Homo sapiens, UniProt Q96PC2)", "T1 sequence (Q96PC2 whole entry)": "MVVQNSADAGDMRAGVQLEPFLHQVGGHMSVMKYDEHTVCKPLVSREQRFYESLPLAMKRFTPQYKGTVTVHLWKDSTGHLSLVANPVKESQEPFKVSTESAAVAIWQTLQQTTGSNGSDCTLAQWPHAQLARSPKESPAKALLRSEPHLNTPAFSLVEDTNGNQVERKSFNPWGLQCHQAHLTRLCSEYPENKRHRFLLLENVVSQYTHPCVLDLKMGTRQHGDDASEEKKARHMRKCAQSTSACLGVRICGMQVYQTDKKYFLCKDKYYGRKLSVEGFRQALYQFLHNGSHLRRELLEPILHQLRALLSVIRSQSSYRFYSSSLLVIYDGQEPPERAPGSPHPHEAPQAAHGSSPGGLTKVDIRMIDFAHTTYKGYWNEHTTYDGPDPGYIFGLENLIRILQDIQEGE", "experiment": "Inhibition of N-terminal 6His-sumo-tagged recombinant human IP6K3 expressed in Escherichia coli assessed as inorganic phosphate release using InsP6 as substrate in presence of ATP measured after 60 to 120 mins by malachite green based colorimetric - DIPP1 coupled enzyme assay"}
{"smiles": "Cc1ccc(-c2onc3ccc(C(=O)O)cc23)cc1", "values": [{"measurement": "IC50", "result": 7.81, "unit": "µM"}]}
